Data reported in patent publication US9096606B2, “Quarternized buprenorphine analogs” (dated 2015).
Like-named read-outs stand apart in the source and are kept apart here. This is a selection: effects in other tests are not listed, and their absence says nothing.

Protein sequences, listed by entry. Tags and fused reporters are not part of them.
UniProt P41145, whole entry, looked up: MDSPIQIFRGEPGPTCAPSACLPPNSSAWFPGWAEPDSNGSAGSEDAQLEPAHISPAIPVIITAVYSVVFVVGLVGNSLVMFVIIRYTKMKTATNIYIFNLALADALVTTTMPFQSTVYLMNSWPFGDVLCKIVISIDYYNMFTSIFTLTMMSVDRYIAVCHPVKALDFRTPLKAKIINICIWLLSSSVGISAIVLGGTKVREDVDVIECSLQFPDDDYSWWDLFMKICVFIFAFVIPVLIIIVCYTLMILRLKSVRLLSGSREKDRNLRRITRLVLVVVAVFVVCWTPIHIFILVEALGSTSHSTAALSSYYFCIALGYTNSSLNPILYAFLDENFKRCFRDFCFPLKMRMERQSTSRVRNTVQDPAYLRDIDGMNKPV
UniProt P35372, whole entry, looked up: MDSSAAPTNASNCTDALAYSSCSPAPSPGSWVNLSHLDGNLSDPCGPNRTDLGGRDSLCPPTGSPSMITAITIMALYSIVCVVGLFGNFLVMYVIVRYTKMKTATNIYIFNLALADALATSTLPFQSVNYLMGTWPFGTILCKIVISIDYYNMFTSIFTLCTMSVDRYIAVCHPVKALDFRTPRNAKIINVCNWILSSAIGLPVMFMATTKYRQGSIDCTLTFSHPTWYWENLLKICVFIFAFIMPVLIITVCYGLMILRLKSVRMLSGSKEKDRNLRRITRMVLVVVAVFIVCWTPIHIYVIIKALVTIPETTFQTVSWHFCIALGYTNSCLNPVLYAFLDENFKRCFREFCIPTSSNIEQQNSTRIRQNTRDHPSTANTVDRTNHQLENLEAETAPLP
UniProt P41146, whole entry, looked up: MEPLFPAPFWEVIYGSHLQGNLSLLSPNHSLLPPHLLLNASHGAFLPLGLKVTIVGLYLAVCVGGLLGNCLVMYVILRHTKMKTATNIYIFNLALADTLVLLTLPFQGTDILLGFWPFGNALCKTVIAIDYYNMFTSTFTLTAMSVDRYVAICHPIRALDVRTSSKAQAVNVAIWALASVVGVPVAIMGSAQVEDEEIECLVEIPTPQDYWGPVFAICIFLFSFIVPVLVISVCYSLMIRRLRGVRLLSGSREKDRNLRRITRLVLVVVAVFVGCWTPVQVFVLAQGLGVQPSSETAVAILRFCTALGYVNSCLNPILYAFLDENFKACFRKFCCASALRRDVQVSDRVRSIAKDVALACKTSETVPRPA

Experiments:
[1] = molecular target: T1, κ opioid receptor (Homo sapiens (Human), UniProt P41145); assay: κ-opioid receptor radioligand dose displacement assay ([3H]-U69,593); conditions: read-out: Ki κ opioid receptor; binding affinity
[2] = molecular target: T2, μ-opioid receptor (Homo sapiens (Human), UniProt P35372); assay: μ-opioid receptor radioligand dose-displacement binding assay ([3H]-diprenorphine); conditions: read-out: Ki μ opioid receptor; binding affinity
[3] = molecular target: T2, μ-opioid receptor; assay: μ-opioid receptor [35S]GTPγS functional assay; conditions: read-out: GTPγS μ EC50; bound given in μM
[4] = molecular target: human opioid receptor-like receptor (ORL-1) (Homo sapiens (Human), UniProt P41146); assay: ORL-1 receptor radioligand binding assay ([3H]-nociceptin); conditions: read-out: Ki ORL-1, binding affinity
[5] = molecular target: T3, δ opioid receptor (Homo sapiens (Human), UniProt P41143); assay: δ-opioid receptor radioligand dose-displacement assay ([3H]-Naltrindole); conditions: read-out: Ki δ opioid receptor, binding affinity
[6] = molecular target: T3, δ opioid receptor; assay: δ-opioid receptor functional [35S]GTPγS binding assay; conditions: read-out: GTPγS δ EC50; bound given in μM
[7] = molecular target: T1, κ opioid receptor; assay: κ-opioid receptor functional [35S]GTPγS binding assay; conditions: read-out: GTPγS κ EC50; bound given in μM

## (3R,4R,4aS,6R,7R,7aR,12bS)-6-(((4-carbamoylbenzyl)oxy)methyl)-3-(cyclopropylmethyl)-7,9-dimethoxy-3-methyl-1,2,3,4,5,6,7,7a-octahydro-4a,7-ethano-4,12-methanobenzofuro[3,2-e]isoquinolin-3-ium
[1]
  Ki: 1.03 µM

## (3S,4R,4aS,6R,7R,7aR,12bS)-3-(cyclopropylmethyl)-7,9-dimethoxy-3-methyl-6-(((4-(trifluoromethyl)benzyl)oxy)methyl)-1,2,3,4,5,6,7,7a-octahydro-4a,7-ethano-4,12-methanobenzofuro[3,2-e]isoquinolin-3-ium
[2]
  Ki: 0.262 µM
[3]
  EC50: > 20 µM
[4]; bound given in μM
  Ki: > 20 µM
[5]; bound given in μM
  Ki: > 20 µM
[6]
  EC50: > 20 µM
[1]
  Ki: 0.112 µM

## (3R,4R,4aS,6R,7R,7aR,12bS)-3-(cyclopropylmethyl)-6-(((2-fluorobenzyl)oxy)methyl)-9-hydroxy-7-methoxy-3-methyl-1,2,3,4,5,6,7,7a-octahydro-4a,7-ethano-4,12-methanobenzofuro[3,2-e]isoquinolin-3-ium
[2]
  Ki: 0.00451 µM
[1]
  Ki: 0.0002 µM

## (3R,4R,4aS,6R,7R,7aR,12bS)-3-(cyclopropylmethyl)-6-((furan-2-ylmethoxy)methyl)-7,9-dimethoxy-3-methyl-1,2,3,4,5,6,7,7a-octahydro-4a,7-ethano-4,12-methanobenzofuro[3,2-e]isoquinolin-3-ium
[2]
  Ki: 0.571 µM
[3]
  EC50: > 20 µM
[5]
  Ki: 4.79 µM
[1]
  Ki: 0.0106 µM

## (3R,4R,4aS,6R,7R,7aR,12bS)-3-(cyclopropylmethyl)-9-hydroxy-7-methoxy-3-methyl-6-(((3-methylbenzyl)oxy)methyl)-1,2,3,4,5,6,7,7a-octahydro-4a,7-ethano-4,12-methanobenzofuro[3,2-e]isoquinolin-3-ium
[2]
  Ki: 0.0043 µM
[1]
  Ki: 0.00029 µM

## (3R,4R,4aS,6R,7R,7aR,12bS)-3-(cyclopropylmethyl)-9-hydroxy-7-methoxy-3-methyl-6-((thiophen-3-ylmethoxy)methyl)-1,2,3,4,5,6,7,7a-octahydro-4a,7-ethano-4,12-methanobenzofuro[3,2-e]isoquinolin-3-ium
[2]
  Ki: 0.0243 µM
[3]
  EC50: > 20 µM
[5]
  Ki: 0.202 µM
[6]
  EC50: > 20 µM
[1]
  Ki: 0.0002 µM

## (3R,4R,4aS,6R,7R,7aR,12bS)-6-(((6-chlorobenzo[d][1,3]dioxol-5-yl)methoxy)methyl)-3-(cyclopropylmethyl)-7,9-dimethoxy-3-methyl-1,2,3,4,5,6,7,7a-octahydro-4a,7-ethano-4,12-methanobenzofuro[3,2-e]isoquinolin-3-ium
[2]
  Ki: 0.163 µM
[4]; bound given in μM
  Ki: > 20 µM
[5]
  Ki: 18.4 µM
[1]
  Ki: 0.0667 µM

## (3R,4R,4aS,6R,7R,7aR,12bS)-3-(cyclopropylmethyl)-6-(((3,4-dichlorobenzyl)oxy)methyl)-7,9-dimethoxy-3-methyl-1,2,3,4,5,6,7,7a-octahydro-4a,7-ethano-4,12-methanobenzofuro[3,2-e]isoquinolin-3-ium
[2]
  Ki: 0.0672 µM
[4]; bound given in μM
  Ki: > 20 µM
[5]
  Ki: 4.41 µM
[1]
  Ki: 0.00502 µM

## (3R,4R,4aS,6R,7R,7aR,12bS)-6-(((4-chlorobenzyl)oxy)methyl)-3-(cyclopropylmethyl)-9-hydroxy-7-methoxy-3-methyl-1,2,3,4,5,6,7,7a-octahydro-4a,7-ethano-4,12-methanobenzofuro[3,2-e]isoquinolin-3-ium
[1]
  Ki: 0.00059 µM

## (3R,4R,4aS,6R,7R,7aR,12bS)-3-(cyclopropylmethyl)-6-((furan-3-ylmethoxy)methyl)-7,9-dimethoxy-3-methyl-1,2,3,4,5,6,7,7a-octahydro-4a,7-ethano-4,12-methanobenzofuro[3,2-e]isoquinolin-3-ium
[2]
  Ki: 5.81 µM
[1]
  Ki: 0.035 µM

## (3R,4R,4aS,6R,7R,7aR,12bS)-3-(cyclopropylmethyl)-6-(((4-fluorobenzyl)oxy)methyl)-9-hydroxy-7-methoxy-3-methyl-1,2,3,4,5,6,7,7a-octahydro-4a,7-ethano-4,12-methanobenzofuro[3,2-e]isoquinolin-3-ium
[2]
  Ki: 0.00955 µM
[3]
  EC50: > 20 µM
[4]; bound given in μM
  Ki: > 20 µM
[5]
  Ki: 0.175 µM
[6]
  EC50: > 20 µM
[1]
  Ki: 0.00026 µM

## (3R,4R,4aS,6R,7R,7aR,12bS)-3-(cyclopropylmethyl)-7,9-dimethoxy-3-methyl-6-((naphthalen-2-ylmethoxy)methyl)-1,2,3,4,5,6,7,7a-octahydro-4a,7-ethano-4,12-methanobenzofuro[3,2-e]isoquinolin-3-ium
[2]
  Ki: 0.182 µM
[3]
  EC50: > 20 µM
[1]
  Ki: 0.165 µM

## (3R,4R,4aS,6R,7R,7aR,12bS)-6-(((3-chlorobenzyl)oxy)methyl)-3-(cyclopropylmethyl)-9-hydroxy-7-methoxy-3-methyl-1,2,3,4,5,6,7,7a-octahydro-4a,7-ethano-4,12-methanobenzofuro[3,2-e]isoquinolin-3-ium
[2]
  Ki: 0.00626 µM
[1]
  Ki: 0.00027 µM

## (3R,4R,4aS,6R,7R,7aR,12bS)-6-((benzofuran-2-ylmethoxy)methyl)-3-(cyclopropylmethyl)-7,9-dimethoxy-3-methyl-1,2,3,4,5,6,7,7a-octahydro-4a,7-ethano-4,12-methanobenzofuro[3,2-e]isoquinolin-3-ium
[2]
  Ki: 0.275 µM
[3]
  EC50: > 20 µM
[1]
  Ki: 0.0173 µM

## (3R,4R,4aS,6R,7R,7aR,12bS)-3-(cyclopropylmethyl)-7,9-dimethoxy-3-methyl-6-(phenoxymethyl)-1,2,3,4,5,6,7,7a-octahydro-4a,7-ethano-4,12-methanobenzofuro[3,2-e]isoquinolin-3-ium
[2]
  Ki: 1.49 µM
[1]
  Ki: 0.348 µM
[7]
  EC50: > 20 µM

## (3R,4R,4aS,6R,7R,7aR,12bS)-3-(cyclopropylmethyl)-6-(((3-fluorobenzyl)oxy)methyl)-9-hydroxy-7-methoxy-3-methyl-1,2,3,4,5,6,7,7a-octahydro-4a,7-ethano-4,12-methanobenzofuro[3,2-e]isoquinolin-3-ium
[2]
  Ki: 0.00535 µM
[1]
  Ki: 0.00025 µM

## (3R,4R,4aS,6R,7R,7aR,12bS)-3-(cyclopropylmethyl)-7,9-dimethoxy-3-methyl-6-(((4-methylbenzyl)oxy)methyl)-1,2,3,4,5,6,7,7a-octahydro-4a,7-ethano-4,12-methanobenzofuro[3,2-e]isoquinolin-3-ium
[2]
  Ki: 0.242 µM
[3]
  EC50: > 20 µM
[4]; bound given in μM
  Ki: > 20 µM
[5]
  Ki: 10.1 µM
[1]
  Ki: 0.117 µM

## (3R,4R,4aS,6R,7R,7aR,12bS)-3-(cyclopropylmethyl)-6-((furan-3-ylmethoxy)methyl)-9-hydroxy-7-methoxy-3-methyl-1,2,3,4,5,6,7,7a-octahydro-4a,7-ethano-4,12-methanobenzofuro[3,2-e]isoquinolin-3-ium
[2]
  Ki: 0.0471 µM
[3]
  EC50: > 20 µM
[5]
  Ki: 0.193 µM
[6]
  EC50: > 20 µM
[1]
  Ki: 0.00029 µM

## (3R,4R,4aS,6R,7R,7aR,12bS)-6-(((2-chlorobenzyl)oxy)methyl)-3-(cyclopropylmethyl)-9-hydroxy-7-methoxy-3-methyl-1,2,3,4,5,6,7,7a-octahydro-4a,7-ethano-4,12-methanobenzofuro[3,2-e]isoquinolin-3-ium
[1]
  Ki: 0.00019 µM

## (3R,4R,4aS,6R,7R,7aR,12bS)-3-(cyclopropylmethyl)-9-hydroxy-7-methoxy-3-methyl-6-(((2-methylbenzyl)oxy)methyl)-1,2,3,4,5,6,7,7a-octahydro-4a,7-ethano-4,12-methanobenzofuro[3,2-e]isoquinolin-3-ium
[1]
  Ki: 0.00047 µM

## (3R,4R,4aS,6R,7R,7aR,12bS)-6-((benzyloxy)methyl)-3-(cyclopropylmethyl)-9-hydroxy-7-methoxy-3-methyl-1,2,3,4,5,6,7,7a-octahydro-4a,7-ethano-4,12-methanobenzofuro[3,2-e]isoquinolin-3-ium
[2]
  Ki: 0.00211 µM
[5]
  Ki: 0.0188 µM
[1]
  Ki: 0.00055 µM

## (3R,4R,4aS,6R,7R,7aR,12bS)-6-((benzo[b]thiophen-2-ylmethoxy)methyl)-3-(cyclopropylmethyl)-9-hydroxy-7-methoxy-3-methyl-1,2,3,4,5,6,7,7a-octahydro-4a,7-ethano-4,12-methanobenzofuro[3,2-e]isoquinolin-3-ium
[2]
  Ki: 0.00229 µM
[3]
  EC50: > 20 µM
[4]; mean ± spread
  Ki: 18.2 µM
[5]
  Ki: 0.0453 µM
[6]
  EC50: > 20 µM
[1]
  Ki: 0.00078 µM
[7]
  EC50: > 20 µM

## (3R,4R,4aS,6R,7R,7aR,12bS)-3-(cyclopropylmethyl)-7,9-dimethoxy-6-(((4-methoxybenzyl)oxy)methyl)-3-methyl-1,2,3,4,5,6,7,7a-octahydro-4a,7-ethano-4,12-methanobenzofuro[3,2-e]isoquinolin-3-ium
[2]
  Ki: 0.544 µM
[3]
  EC50: > 20 µM
[4]; bound given in μM
  Ki: > 20 µM
[5]; bound given in μM
  Ki: > 20 µM
[1]
  Ki: 0.057 µM

## (3R,4R,4aS,6R,7R,7aR,12bS)-3-(cyclopropylmethyl)-9-hydroxy-7-methoxy-3-methyl-6-(((4-methylbenzyl)oxy)methyl)-1,2,3,4,5,6,7,7a-octahydro-4a,7-ethano-4,12-methanobenzofuro[3,2-e]isoquinolin-3-ium
[2]
  Ki: 0.00136 µM
[3]
  EC50: > 20 µM
[4]; bound given in μM
  Ki: > 20 µM
[5]
  Ki: 0.109 µM
[6]
  EC50: > 20 µM
[1]
  Ki: 0.00106 µM
